Data on 1 substance can be found in patent US20100330076A1.

The chains behind the UniProt entries cited, without tags or fusion partners. Residues count along the entry.
UniProt P12318, 34-217: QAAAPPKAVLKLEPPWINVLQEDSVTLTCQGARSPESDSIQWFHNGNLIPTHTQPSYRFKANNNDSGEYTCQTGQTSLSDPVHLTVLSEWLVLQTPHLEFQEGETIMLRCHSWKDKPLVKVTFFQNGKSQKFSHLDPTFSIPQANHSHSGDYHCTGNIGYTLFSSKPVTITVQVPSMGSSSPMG

In this test the target is extracellular domain of FcγRIIa C-terminal fused to GST (Berntzen et al., 2005) (human) (UniProt P12318). Description: ELISA, IgG coated, serially diluted FcγRIIa-GST, anti-GST-HRP; the reference is not named (presumably glycosylated trastuzumab).

As for “wild type aglycosylated trastuzumab (full length IgG1 purified from E. coli) (antibody)”, the fold higher EC50 was > 1000 fold.
